Test [1] has as its target T1, protein kinase B (PKB), fusion protein PKB-PIF (Homo sapiens, UniProt P31751).
T1 construct: made in house
Put plainly: Measurement of PKB kinase inhibitory activity (IC50). The format is biochemical. As for the experimental part:
The inhibition of protein kinase B (PKB) activity by compounds can be determined essentially as described by Andjelkovic et al. (Mol. Cell. Biol. 19, 5061-5072 (1999)) but using a fusion protein described as PKB-PIF and described in full by Yang et al (Nature Structural Biology 9, 940-944 (2002)). […] A final concentration of 0.6 nM enzyme is used in a buffer that includes 20 mM MOPS pH 7.2, 30 μM ATP/γ^33P-ATP and 25 μM substrate. Compounds are added in DMSO solution to a final DMSO concentration of 2.5%. The reaction is allowed to proceed for 20 minutes before addition of excess orthophosphoric acid to quench activity. The reaction mixture is transferred to a phosphocellulose filter plate where the peptide binds and the unused ATP is washed away. After washing, scintillant is added and the incorporated activity measured by scintillation counting.
The % inhibition of the PKB activity is calculated and plotted in order to determine the concentration of test compound required to inhibit 50% of the PKB activity (IC50).

Test [2] has as its target T2, PKA catalytic domain (Homo sapiens, UniProt P17612).
T2 construct: using the PKA catalytic domain from Upstate Biotechnology (#14-440); purchased Upstate Biotechnology 14-440
Put plainly: Measurement of PKA kinase inhibitory activity (IC50). The following applies: 1 nM enzyme, 40 μM ATP/γ33P-ATP, 5 μM peptide substrate GRTGRRNSI, 20 minutes; read-out: IC50, concentration required to inhibit 50% of the PKA activity. The format is biochemical. The method, then:
A final concentration of 1 nM enzyme is used in a buffer that includes 20 mM MOPS pH 7.2, 40 μM ATP/γ^33P-ATP and 5 μM substrate. Compounds are added in dimethylsulphoxide (DMSO) solution to a final DMSO concentration of 2.5%. The reaction is allowed to proceed for 20 minutes before addition of excess orthophosphoric acid to quench activity. Unincorporated γ^33P-ATP is then separated from phosphorylated proteins on a Millipore MAPH filter plate. The plates are washed, scintillant is added and the plates are then subjected to counting on a Packard Topcount.

pIC50: −log10 of the molar value.

For `Cc1n[nH]cc1-c1ccc(C(O)(CN)c2ccccc2)cc1` (centres unmarked) [Example 78, 2-Amino-1-[4-(3-methyl-1H-pyrazol-4-yl)-phenyl]-1-phenyl-ethanol], the pIC50 in test [1] and in test [2] was greater than 6.00 each time.

(Values after patent US20100210617A1, “Aryl-Alkylamines And Heteroaryl-Alkylamines As Protein Kinase Inhibitors” (ASTEX THERAPEUTICS LIMITED, priority 2005, published 2010).)
